The values that follow come from PubChem BioAssay (NCI).

Assay [1] can be described thus: NCI Yeast Anticancer Drug Screen. Data for the rad50 strain (AID 155).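 Note: 0% = growth of vehicle-only cultures of the same strain.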 Conditions: S. cerevisiae rad50 strain growth inhibition; at 50.0 µM; active compounds read high.
The nature of assay [2]: NCI Yeast Anticancer Drug Screen. Data for the mec2-1 strain (AID 157). Conditions: S. cerevisiae mec2-1 strain, at 50.0 µM, active compounds read high.
Assay [3] can be described thus: NCI Yeast Anticancer Drug Screen. Data for the sgs1 mgt1 strain (AID 161).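 Note: 0% = growth of cultures given vehicle only.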 Conditions: S. cerevisiae sgs1 mgt1 strain, at 50.0 µM, active compounds read high.
A short description of assay [4]: NCI Yeast Anticancer Drug Screen. Data for the cln2 rad14 strain (AID 165).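 Note: 0% = growth equal to vehicle treated cultures.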 As to conditions: S. cerevisiae cln2 rad14 strain, at 50.0 µM, active compounds read high.
A short description of assay [5]: NCI Yeast Anticancer Drug Screen. Data for the bub3 strain (AID 167). As to conditions: S. cerevisiae bub3 mutant strain, at 50.0 µM, active compounds read high.
Assay [6] can be described thus: NCI Yeast Anticancer Drug Screen. Data for the mlh1 rad18 strain (AID 175). As to conditions: S. cerevisiae mlh1 rad18 strain growth inhibition; at 50.0 µM; active compounds read high.

This is a selection; strong and weak results do not stand in their true shares. Calls of active or inactive are those of the source. Cut-off read from the data, not from the text of the source: active = growth inhibition above about 70%; inactive = the rest.

On to `O=C(O)CN(CCCl)CCCl`, for which the growth inhibition is inactive: 1.65% in assay [1]; inactive: 7.3% in assay [2]; inactive: -5.55% in assay [3]; inactive: -22.4% in assay [4]; inactive: 2.65% in assay [5]; inactive: 6.65% in assay [6].

For the molecule `Cc1ccc(N(CCI)CCI)cc1`, the growth inhibition is inactive: 8.2% in assay [1]; inactive: -20.9% in assay [2]; inactive: 6.75% in assay [3]; inactive: 24.1% in assay [4]; inactive: 5.85% in assay [5]; inactive: 27.6% in assay [6].

Take `[C-]#N.c1ccc([Te+](c2ccccc2)c2ccccc2)cc1`: the growth inhibition in assay [1] was inactive: 7.75%; in assay [2] it was inactive: 7.35%; in assay [3], inactive: -4.85%; in assay [4], inactive: 10%; in assay [5], inactive: -2.4%; in assay [6] it was inactive: -25.4%.

For `Cc1ccccc1NC1CC(C)(C)NC(C)(C)C1`, the growth inhibition in assay [1] was inactive: -4.75%; in assay [2], inactive: -11.8%; in assay [3], inactive: 6.05%; in assay [4], inactive: -0.65%; in assay [5], inactive: -6.7%; in assay [6] it was inactive: -9.05%.

For `NC(=O)C1(Nc2ccccc2)CCNCC1`, the growth inhibition is inactive: -9.25% in assay [1]; inactive: -15.1% in assay [2]; inactive: -5.8% in assay [3]; inactive: 7.95% in assay [4]; inactive: -0.55% in assay [5]; inactive: -6.15% in assay [6].

In the case of `O=C1CCNCC1`, the growth inhibition was inactive: -6.6% in assay [1]; inactive: -8% in assay [2]; inactive: -10.1% in assay [3]; inactive: 20.6% in assay [4]; inactive: 4.15% in assay [5]; inactive: 1.6% in assay [6].

`CC1CC(C)OP(=O)(N(CCCl)CCCl)N1` (stereo unspecified): the growth inhibition in assay [1] was inactive: -9.7%; in assay [2], inactive: -11.4%; in assay [3], inactive: -24.9%; in assay [4], inactive: -34.9%; in assay [5] it was inactive: -19.7%; in assay [6], inactive: -18%.

Regarding `O=C(Cl)c1ccc(N(CCCl)CCCl)cc1`, the growth inhibition in assay [1] is inactive: -3.05%; in assay [2] it was inactive: 7.4%; in assay [3] it was inactive: 5.7%; in assay [4], inactive: -31.6%; in assay [5], inactive: 6.05%; in assay [6] it was inactive: 22.1%.

For the molecule `COc1ccc(N(CCCl)CCCl)cc1`, the growth inhibition is inactive: 1.7% in assay [1]; inactive: 0.7% in assay [2]; inactive: -13.4% in assay [3]; inactive: -9% in assay [4]; inactive: -21.1% in assay [5]; inactive: -16.2% in assay [6].

For `Cc1cc(C)c2nc(CN(CCCl)CCCl)[nH]c2c1`, the growth inhibition in assay [1] is inactive: -0.05%; in assay [2] it was inactive: 4.55%; in assay [3], inactive: 13.4%; in assay [4], inactive: 26.6%; in assay [5], inactive: 15.3%; in assay [6], inactive: 2.4%.

For the molecule `COc1cc(CN(CCCl)CCBr)cc(OC)c1OC`, the growth inhibition was inactive: -15.8% in assay [1]; inactive: -5.35% in assay [2]; inactive: -27.8% in assay [3]; inactive: -63.5% in assay [4]; inactive: 10.4% in assay [5]; inactive: -25.2% in assay [6].

With `O=NN(CCSCCCl)C(=O)NC1CCCCC1`, the growth inhibition was inactive: 12.2% in assay [1]; inactive: -10.8% in assay [2]; inactive: 36.2% in assay [3]; inactive: -32.2% in assay [4]; inactive: -0.2% in assay [5]; inactive: 9.35% in assay [6].

On to `O=C(OC1CN2CCC1CC2)C1(c2ccccc2)COc2ccccc21` (stereo unspecified), for which the growth inhibition is inactive: 11.1% in assay [1]; inactive: -8.6% in assay [2]; inactive: 18.8% in assay [3]; inactive: 12.8% in assay [4]; inactive: 14.4% in assay [5]; inactive: -29.2% in assay [6].

For the molecule `ClCCN(CCCl)c1cccc(CN2CCOCC2)c1`, the growth inhibition in assay [1] is inactive: 59.7%; in assay [2] it was inactive: 57.9%; in assay [3], active: 79.7%; in assay [4] it was inactive: 68.3%; in assay [5] it was inactive: 55%; in assay [6] it was active: 71.2%.

As to `Cc1ccccc1NC1(C#N)CCN(Cc2ccccc2)CC1`, the growth inhibition in assay [1] is inactive: -0.95%; in assay [2], inactive: -32.8%; in assay [3] it was inactive: -11.9%; in assay [4], inactive: 23.9%; in assay [5], inactive: -13.8%; in assay [6], inactive: 7.3%.

Take `O=P(Cl)(Cl)CCCl`: the growth inhibition in assay [1] is inactive: -2.3%; in assay [2], inactive: -16.8%; in assay [3], inactive: -1.45%; in assay [4], inactive: -6.5%; in assay [5] it was inactive: -9.3%; in assay [6], inactive: -0.2%.

As for `COc1cc(CN(CCBr)CCBr)cc(OC)c1`, the growth inhibition in assay [1] was inactive: -6.4%; in assay [2] it was inactive: -7.25%; in assay [3], inactive: -14.7%; in assay [4], inactive: -33.7%; in assay [5] it was inactive: -4.25%; in assay [6] it was inactive: -15.1%.

For `Cn1c(S(C)=O)cnc1COC(=O)N(CCCl)CCCl` (stereo unspecified), the growth inhibition in assay [1] was inactive: -6.7%; in assay [2] it was inactive: -27.4%; in assay [3] it was inactive: -36.8%; in assay [4], inactive: -10.8%; in assay [5], inactive: 11.1%; in assay [6] it was inactive: -16.2%.

Regarding `OCC#CCN(CCBr)CCBr`, the growth inhibition in assay [1] is inactive: 9.3%; in assay [2], inactive: -11.6%; in assay [3], inactive: 14.3%; in assay [4] it was inactive: 1%; in assay [5], inactive: 32.5%; in assay [6], inactive: -51.8%.

Consider `COc1cccc(CN(CCCl)CCCl)c1OC`, for which the growth inhibition in assay [1] is inactive: -4.35%; in assay [2], inactive: -3.45%; in assay [3], inactive: -0.75%; in assay [4] it was inactive: 22.6%; in assay [5] it was inactive: -0.15%; in assay [6] it was inactive: -2.7%.

For the molecule `ClCCN(CCCl)c1ccc(CN2CCCCC2)cc1`, the growth inhibition in assay [1] was inactive: 51.5%; in assay [2], inactive: 0.65%; in assay [3] it was inactive: 67.6%; in assay [4] it was inactive: 59.5%; in assay [5], inactive: 51.5%; in assay [6], inactive: 63.7%.

With `CCCCC1(N(CCCl)CCCl)C(=O)NC(=O)NC1=O`, the growth inhibition in assay [1] was inactive: 10.7%; in assay [2], inactive: 6.2%; in assay [3], inactive: 6.3%; in assay [4] it was inactive: -17.5%; in assay [5], inactive: 2.9%; in assay [6], inactive: 18.3%.

Consider `C[N+](CCCl)(CCCl)Cc1ccc([N+](=O)[O-])cc1`, for which the growth inhibition in assay [1] was inactive: 14.7%; in assay [2], inactive: -22.1%; in assay [3], inactive: -2.1%; in assay [4] it was inactive: 6.35%; in assay [5], inactive: -2.95%; in assay [6] it was inactive: 15.8%.

In the case of `NCCN(CCCl)CCCl`, the growth inhibition in assay [1] is inactive: -10.8%; in assay [2], inactive: -28.6%; in assay [3], inactive: -31.7%; in assay [4] it was inactive: 2.15%; in assay [5], inactive: -32.8%; in assay [6], inactive: 28.4%.

With `Nc1nc2c(ncn2CCN(CCCl)CCCl)c(=O)[nH]1`, the growth inhibition in assay [1] is inactive: 18.4%; in assay [2] it was inactive: -6.7%; in assay [3], inactive: 3.4%; in assay [4], inactive: -10.1%; in assay [5], inactive: -12.8%; in assay [6], inactive: 23.3%.

For the molecule `CC(Cl)CN(CC(C)Cl)c1ccc2ccccc2c1` (stereo unspecified), the growth inhibition is inactive: -1.75% in assay [1]; inactive: -3.35% in assay [2]; inactive: -0.6% in assay [3]; inactive: -13.4% in assay [4]; inactive: -16.8% in assay [5]; inactive: -22.1% in assay [6].

As to `Oc1cc(O)cc(N(CCCl)CCCl)c1`, the growth inhibition in assay [1] is inactive: 22.6%; in assay [2], inactive: 17.3%; in assay [3] it was inactive: 29.6%; in assay [4] it was inactive: 12.3%; in assay [5] it was inactive: 6.8%; in assay [6] it was inactive: 46.5%.

Turning to `CN1CC(C(C)(C)C)COP1(=O)N(CCCl)CCCl` (stereo unspecified), the growth inhibition in assay [1] is inactive: 2.75%; in assay [2], inactive: 2%; in assay [3] it was inactive: -10.6%; in assay [4], inactive: 7.55%; in assay [5], inactive: 9.4%; in assay [6] it was inactive: 13.2%.

As for `O=P(Cl)(Cl)N(CCF)CCCl`, the growth inhibition in assay [1] is inactive: -8.5%; in assay [2], inactive: -9.9%; in assay [3], inactive: -11.7%; in assay [4], inactive: -17.1%; in assay [5] it was inactive: -7.15%; in assay [6], inactive: -15%.

`Cc1oc2ccccc2c(=O)c1CN(CCCl)CCCl`: the growth inhibition in assay [1] is inactive: -10.2%; in assay [2] it was inactive: -23%; in assay [3], inactive: 0.05%; in assay [4], inactive: -4.15%; in assay [5] it was inactive: -11.8%; in assay [6], inactive: -19.9%.

For `CC(C)NCCCl`, the growth inhibition in assay [1] was inactive: 20.6%; in assay [2], inactive: -6.95%; in assay [3], inactive: 3.55%; in assay [4], inactive: 9.8%; in assay [5], inactive: 7.3%; in assay [6], inactive: 11.8%.
